Laboratory results reported in US20240122930A1, “INTEGRIN INHIBITORS AND USES THEREOF IN COMBINATION WITH OTHER AGENTS” (Pliant Therapeutics, Inc., priority 2022, published 2024).

Tested on: Type I Collagen gene Col1a1 expression
Assay: Precision cut lung slices, acute bleomycin exposure, Col1a1 expression
Format: cell-based, mice (C57BL/6)

For `Cc1cc(C)n(-c2cccc([C@H](CC(=O)O)CN3CC[C@H](CCc4ccc5c(n4)NCCC5)C3)c2)n1` [first pan-αV small molecule inhibitor, (3S)-3-[3-(3,5-dimethyl-1H-pyrazol-1-yl)phenyl]-4-{(3S)-3-[2-(5,6,7,8-tetrahydro-1,8-naphthyridin-2-yl)ethyl]-1-pyrrolidinyl}butanoic acid], the “Type I Collagen gene Col1a1 expression, normalized to DMSO control slices” value was “decreased Type I Collagen gene Col1a1 expression comparably”.
